Experiments:
O=CO = assay: purified protein; conditions: saturating NAD+ (>15 KM), 0.1 M sodium phosphate pH 7.0, 30°C
[1] = tested on: T1, NC(=O)c1ccc[n+]([C@@H]2O[C@H](COP(=O)(O)OP(=O)(O)OC[C@H]3O[C@@H](n4cnc5c(N)ncnc54)[C@H](O)[C@@H]3O)[C@@H](O)[C@H]2O)c1; assay: purified protein; type: biochemical, Pseudomonas sp. 101; conditions: saturating formate (>15 KM), 0.1 M sodium phosphate pH 7.0, 30°C
T1 construct: recombinant, plasmid pPseFDH8, E. coli BL21(DE3)/pLysS; no tag mentioned; Phenyl Sepharose and Sephadex G-25

Substance | Km (O=CO) | kcat (O=CO) | kcat [1]
PseFDH (Pseudomonas sp. 101; A199G) | 7.5 ± 0.2 mM | 7.3 ± 0.1 s⁻¹ | 7.3 ± 0.1 s⁻¹
PseFDH (Pseudomonas sp. 101; A199G/D222S) | 53 ± 1 mM | 5.0 ± 0.2 s⁻¹ | 
PseFDH (Pseudomonas sp. 101; D222S) | 32 ± 2 mM | 5.0 ± 0.3 s⁻¹ | 

From publication PMC4410396 (Acta Naturae, 2015)
